Experimental data published in paper PMC2920070 (Journal of medicinal chemistry, 2010).

Protein sequences, listed by entry. Tags and fused reporters are not part of them. Residues count along the entry.
UniProt Q62645, 28-1323: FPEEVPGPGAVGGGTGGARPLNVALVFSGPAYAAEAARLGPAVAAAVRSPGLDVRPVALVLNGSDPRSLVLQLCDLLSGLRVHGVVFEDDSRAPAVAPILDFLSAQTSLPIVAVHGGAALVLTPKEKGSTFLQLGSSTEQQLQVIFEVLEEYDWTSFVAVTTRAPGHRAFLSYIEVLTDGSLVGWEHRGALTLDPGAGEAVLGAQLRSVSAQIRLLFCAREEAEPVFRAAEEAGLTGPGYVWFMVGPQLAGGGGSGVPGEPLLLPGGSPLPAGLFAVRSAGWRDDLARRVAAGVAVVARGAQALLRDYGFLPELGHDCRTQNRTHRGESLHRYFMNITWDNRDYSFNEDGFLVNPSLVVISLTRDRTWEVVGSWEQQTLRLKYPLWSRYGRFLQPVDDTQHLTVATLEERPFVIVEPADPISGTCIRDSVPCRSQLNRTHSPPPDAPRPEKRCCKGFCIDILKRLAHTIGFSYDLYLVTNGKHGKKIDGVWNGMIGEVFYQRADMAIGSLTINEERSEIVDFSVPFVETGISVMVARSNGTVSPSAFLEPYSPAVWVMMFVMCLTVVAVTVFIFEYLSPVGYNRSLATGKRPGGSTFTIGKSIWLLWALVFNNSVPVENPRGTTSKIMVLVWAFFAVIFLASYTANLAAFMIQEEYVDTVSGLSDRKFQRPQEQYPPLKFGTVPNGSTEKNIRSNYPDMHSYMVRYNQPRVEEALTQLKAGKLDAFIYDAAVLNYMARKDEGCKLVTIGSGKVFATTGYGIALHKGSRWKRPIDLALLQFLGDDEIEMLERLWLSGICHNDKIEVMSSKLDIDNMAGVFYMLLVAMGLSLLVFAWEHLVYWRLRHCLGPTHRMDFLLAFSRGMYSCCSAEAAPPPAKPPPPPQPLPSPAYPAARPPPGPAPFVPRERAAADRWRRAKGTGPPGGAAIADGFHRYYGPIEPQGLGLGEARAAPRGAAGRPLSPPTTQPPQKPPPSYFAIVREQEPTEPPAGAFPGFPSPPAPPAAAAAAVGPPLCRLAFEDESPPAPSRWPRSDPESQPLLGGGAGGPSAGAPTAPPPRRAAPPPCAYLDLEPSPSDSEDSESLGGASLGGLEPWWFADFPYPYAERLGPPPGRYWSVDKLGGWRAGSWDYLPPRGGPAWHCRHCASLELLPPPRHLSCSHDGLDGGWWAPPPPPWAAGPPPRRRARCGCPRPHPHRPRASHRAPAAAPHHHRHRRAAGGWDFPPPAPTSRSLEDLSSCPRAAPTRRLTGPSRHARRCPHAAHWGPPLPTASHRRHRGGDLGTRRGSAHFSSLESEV

Molecular target: NR1/NR2D (Rattus norvegicus, UniProt P35439+Q62645)
Assay: Two-electrode voltage-clamp, recombinant NR1/NR2D in Xenopus oocytes
Format: cell-based
Details: selectivity ratio

`O=C(O)c1ccc(-n2c(/C=C/c3ccc([N+](=O)[O-])cc3)nc3ccccc3c2=O)cc1` [Compound 7] was tested, and the “GluR1/NR2D: (IC50 GluR1)/(IC50 NR2D)” value was greater than 20.
